The values below come from patent US8133683B2, “Methods for detecting biomolecules in a sample” (Taipei Medical University, priority 2009, dated 2012).

The nature of the data set: Capturing capacity and rate of MD-Charcoal for FITC-labeled molecules. As to conditions: for Remaining fluorescence intensities: 3 μM in 60 μl, Ex485/Em535, Gain 35, means±SD (n=3).

In the case of “Fluorescein-5-isothiocyanate cadaverine [FITC-cadaverine, reference compound]”, the “Remaining fluorescence intensities (% of No Treatment)” value runs as follows: (MD-Charcoal treatment 1 min) “(0.4%)”; (MD-Charcoal treatment 5 min) “(0.3%)”; (MD-Charcoal treatment 10 min) “(0.3%)”. Besides, the Remaining fluorescence intensities runs as follows: (MD-Charcoal treatment 1 min) 1,443 ± 68^1b; (MD-Charcoal treatment 5 min) 1,130 ± 36^1b; (MD-Charcoal treatment 10 min) 1,020 ± 37^1b.
